Laboratory results as given in patent publication US20100087406A1, “INDUCTION OF INNATE IMMUNITY BY VITAMIN D3 AND ITS ANALOGS” (CEDARS-SINAI MEDICAL CENTER, priority 2004, published 2010).
Several values for one entry are separate records, joined by “and”; a condition that tells them apart may be missing. Equal entries are not always repeated.

Experiments:
[1] = test system: CAMP; assay: Induction of CAMP mRNA expression in U937 cells (QRT-PCR, RT-PCR, Northern blot); type: cell-based, human; conditions: for induction of CAMP mRNA (CAMP/18S): U937 positive control, 12 and 24 h, QRT-PCR (FIG. 10A)
[2] = test system: CAMP; assay: Induction of CAMP mRNA in colon cancer cell line HT-29 (QRT-PCR); type: cell-based, human; conditions: HT-29, 1×10^−7 M, 24 hours
From the text: The X-axis represents (CAMP(ng)/18S(ng)), +/−SD.

[3] = test system: CD11b; assay: Differentiation marker CD11b mRNA in HL60 cells (Northern blot); type: cell-based, human; conditions: HL-60; 1,25[OH]2D3 1×10^−7 M or TPA 5 ng/ml; 1, 3 or 5 days
[4] = test system: MPO (myeloperoxidase); assay: Induction of primary granule gene MPO in U937 cells (RT-PCR); conditions: U937, 1×10^−7 M, 24 h
[5] = test system: CAMP; assay: Induction of CAMP mRNA expression in HL60 cells (Northern blot)
[6] = test system: MMP8 (matrix metalloproteinase 8); assay: Induction of secondary granule gene MMP8 in U937 cells (RT-PCR); conditions: U937, 1×10^−7 M, 24 h
[7] = test system: CDIIb; assay: Differentiation marker CDIIb mRNA in HL60R cells (Northern blot); conditions: 1×10^−7 M, 24 hours
[8] = test system: CAMP; assay: Induction of CAMP mRNA in normal human bone marrow cells (QRT-PCR); conditions: two normal human bone marrow cell samples, 1×10^−8 to 1×10^−6M, 72 or 120 h
[9] = test system: CDIIb; assay: Differentiation marker CDIIb mRNA in HL60Δ404 cells (Northern blot); conditions: HL60Δ404, 1×10^−7 M, 24 hours
[10] = test system: CAMP; assay: Induction of CAMP mRNA in normal human BM-derived macrophages (QRT-PCR); conditions: BM Mφ, increasing concentration
[11] = test system: CAMP; assay: Induction of CAMP mRNA in bone marrow cells of an AML patient (QRT-PCR); conditions: AML BM cells, 24 h
[12] = test system: hCAP18; assay: hCAP18 protein expression in U937 cells (Western blot, immunofluorescence, ELISA)

## C=C1/C(=C\C=C2/CCC[C@]3(C)[C@@H]([C@H](C)CCCC(C)(C)O)CC[C@@H]23)C[C@@H](O)C[C@@H]1O [1,25(OH)2D3, 1,25-dihydroxyvitamin D3]
[1]; 1×10^−7 M, Northern blot (FIG. 2A)
  strength of CAMP induction, U937 compared with HL60: stronger in the U937 cell line
[1]; U937, 1×10^−6 M to 1×10^−9 M, 24 h, Northern blot
  dose responsiveness of CAMP induction: dose responsive
[1]; U937, 1×10^−7 M, 20 μg/ml cyclohexamide, 6 and 9 hours, Northern blot
  induction of CAMP gene expression in the presence of CHX: Induction of CAMP gene expression occurred in the absence of ongoing protein synthesis
[1]; U937, 1×10^−7 M, 24 h, RT-PCR
  CAMP expression in the granule gene specificity test: significantly upregulated
[1]; U937, 1×10^−7 M, 24 hours, Northern blot (FIG. 9)
  induction of CAMP mRNA expression: induced expression of CAMP mRNA in all three cell types
[1]; U937, 1×10^−7 M, measured at 0, 1, 3, 5 days
  time at which induction of the CAMP gene occurred: ≤ 1 days
[1]; U937, 1×10^−7 M, time course 1-24 hours
  begin of CAMP induction after addition: 1 to 3 h
[1]; U937, initial screen, 24 h, QRT-PCR and Northern blot
  induction of CAMP expression: induced CAMP expression significantly
[1]; U937, 1,25[OH]2D3 1×10^−7 M or TPA 5 ng/ml, 1, 3 or 5 days, Northern blot
  induction of CAMP mRNA: observed only with 1,25(OH)2D3
[1]
  induction of CAMP mRNA (CAMP/18S): strong induction of CAMP
[1]; listed as Vitamin D3
  induction of CAMP mRNA (CAMP/18S): induced CAMP mRNA expression in a dose-dependent manner in every cell type tested
[1]; five days of treatment
  duration of CAMP induction: continued throughout the five days of treatment
[2]
  induction of CAMP mRNA: Induction of CAMP mRNA was observed
[3]
  macrophage-like differentiation (induction of CD11b): promoted macrophage-like differentiation
[4]
  induction of MPO: No induction of these genes was observed
[5]; HL60, 1×10^−7 M, measured at 0, 1, 3, 5 days
  time at which induction of the CAMP gene occurred: ≤ 1 days
[5]; HL60, Northern blot (FIG. 2 and FIG. 3)
  induction of CAMP expression: induction was observed
[5]; HL-60, 1,25[OH]2D3 1×10^−7 M or TPA 5 ng/ml, 1, 3 or 5 days, Northern blot
  induction of CAMP mRNA: observed only with 1,25(OH)2D3
[6]
  induction of MMP8: No induction of these genes was observed
[7]
  CDIIb expression in response to treatment: lack of CDIIb expression
[8]
  induction of CAMP mRNA (CAMP/18S): Similarly strong induction of CAMP
[8]; listed as Vitamin D3
  induction of CAMP mRNA (CAMP/18S): induced CAMP mRNA expression in a dose-dependent manner in every cell type tested
[9]
  CDIIb expression in response to treatment: induction of CDIIb
[10]
  induction of CAMP mRNA (CAMP/18S): Similarly strong induction of CAMP
[11]
  dose dependence of CAMP mRNA induction: dose-responsive manner
[11]; two concentrations
  induction of CAMP mRNA over baseline: 6 fold and 11 fold
[12]; U937, 1×10^−7 M, 18 h and 36 h, Western blot and immunofluorescent microscopy
  hCAP18 protein level compared with untreated cells: increased levels of hCAP18 were observed
[12]; U937, 24 h, ELISA
  hCAP18 in the medium: CAMP was secreted into the medium
